This is a selection; strong and weak results do not stand in their true shares. Results filed as inconclusive are left out. Active and inactive are the calls of the source. Calls come from the whole dose curve; as a rule, active = well fitted cell-killing curve with a large enough effect; inconclusive = small, poorly fitted or top-dose-only effect, or effect the other way; inactive = flat fitted curve, though single readings scatter.
Experiment: qHTS for induction of synthetic lethality in tumor cells producing 2HG: qHTS for the HT-1080-NT fibrosarcoma cell line;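 note: NT is the 2HG producing partner of a matched IDH1 knockdown line; 0% = DMSO-treated cells and -100% = media-only wells without cells; nearly all actives have a fitted effect of over 55% in size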
Details: HT-1080-NT fibrosarcoma viability, CellTiter-Glo ATP luminescence, 48 h; at 46.1 µM (top of the series) unless noted

Structure (SMILES) | activity, negative = less viability
CN(C)C1(CNC(=O)c2cccc(C#N)c2)CCCCC1 | inactive: 3.18%
Cc1cc(N(CCCl)CCCl)ccc1C=O | inactive: -5.56%
CCCN1CCC(Nc2cc(OC)cc(OC)c2)CC1 | inactive: -20.6%
O=c1[nH]c2ccccc2n1C1CCN(C(c2ccccc2)c2nnnn2C2CCCC2)CC1 (stereo not given) | inactive: -19.8%
c1ccc(CN2CCC(Nc3ccccc3)CC2)cc1 | inactive: 6.95%
COc1ccc(C(=O)NCC2(N3CCOCC3)CCCCC2)cc1OC | inactive: 2.29%
COc1cc(C(=O)NCC2(N3CCOCC3)CCCCC2)cc(OC)c1C | inactive: 1.16%
CCCCn1nnnc1C(c1ccccc1)N1CCC(n2c(=O)[nH]c3ccccc32)CC1 (stereo not given) | inactive: -11.5%
O=C(NCC1(N2CCOCC2)CCCCC1)c1cc(Br)ccc1Cl | inactive: -0.0262% [at 9.24 µM]
O=c1[nH]c2ccccc2n1C1CCN(C(c2cccs2)c2nnnn2C2CCCC2)CC1 (stereo not given) | inactive: -29.8%
O=C(O)c1cccc(Nc2c([N+](=O)[O-])cc([N+](=O)[O-])cc2[N+](=O)[O-])c1 | inactive: -2.55%
O=C(OC1CN2CCC1CC2)C1c2ccccc2C=Cc2ccccc21 (stereo not given) | inactive: 2.02%
CCc1cc(C(=O)NCC2(N3CCCCC3)CCCCC2)sc1C | inactive: -7.07%
CCCCn1nnnc1C(c1cccc(OC)c1OC)N1CCC(n2c(=O)[nH]c3ccccc32)CC1 (stereo not given) | inactive: -26.6%
COc1cccc(C(c2nnnn2C(C)(C)C)N2CCC(n3c(=O)[nH]c4ccccc43)CC2)c1OC (stereo not given) | inactive: -9.54%
CCOC(=O)N1CCC(Nc2ccc(C)cc2)CC1 | inactive: 11.7%
N/C(=N\O)c1c(N)no[n+]1[O-] | inactive: 19.7%
CCC(c1nnnn1C(C)(C)C)N1CCC(n2c(=O)[nH]c3ccccc32)CC1 (stereo not given) | inactive: 20.1%
O=C(NCC1(N2CCOCC2)CCCCC1)c1cc(F)c(F)cc1Cl | inactive: 7.29%
CCN(CC)CCCNc1ccccc1[N+](=O)[O-].O=[N+]([O-])c1cc([N+](=O)[O-])c(O)c([N+](=O)[O-])c1 | inactive: -24.6%
COc1cc(OC)c(C(=O)NCC2(N(C)C)CCCCC2)cc1OC | inactive: 8.64%
CC(C)c1ccc(NC2CCN(C(=O)OC(C)(C)C)CC2)cc1 | inactive: -20.4%
O=[N+]([O-])c1cc([N+](=O)[O-])c(OC2CCCCC2O)c([N+](=O)[O-])c1 (stereo not given) | inactive: -12.5%
CN(C)c1cccc(C(=O)NCC2(N3CCCCC3)CCCCC2)c1 | inactive: 26.3%
COc1ccc(CN(CCCl)CCCl)cc1Cl | inactive: 3.31%

— PubChem BioAssay AID686970 (National Center for Advancing Translational Sciences (NCATS), 2013)
